Reference: US9951057B2, “COMT inhibiting methods and compositions” (Lieber Institute for Brain Development, priority 2015, dated 2018)

The chains behind the UniProt entries cited, without tags or fusion partners. Residues count along the entry.
UniProt P21964, 52-271 limits assumed: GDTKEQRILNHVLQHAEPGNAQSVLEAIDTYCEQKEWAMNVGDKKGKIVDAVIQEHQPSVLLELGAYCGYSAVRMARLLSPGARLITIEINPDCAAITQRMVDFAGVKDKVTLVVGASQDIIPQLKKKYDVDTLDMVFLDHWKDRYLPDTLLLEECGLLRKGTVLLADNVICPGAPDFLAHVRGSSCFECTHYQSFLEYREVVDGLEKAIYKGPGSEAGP

Target: catechol-O-methyltransferase (COMT) (Homo sapiens, UniProt P21964)
Experiment: COMT inhibition assay (HTRF, production of SAH from SAM)
Conditions: recombinant human COMT, table does not say whether MB-COMT or S-COMT
Description: The ability of compounds to inhibit the activity of catechol-O-methyltransferase (COMT) was determined by a homogenous time-resolved fluorescent (HTRF) assay (Lina et al, 2012; kit from CisBio, Codolet, France). This assay measures the production of S-adenosyl homocysteine (SAH) from the methyl donor S-adenosyl methionine. Recombinant human membrane bound COMT (MB-COMT; M51A variant) was expressed in HEK 293F cells using 293Fectin (Life Technologies, Gent, Belgium) and membranes prepared. The membranes were re-suspended in buffer (20 mM Tris/HCl pH 7; 10 mM glycerol; 2 mM MgCl2; 10 mM NaCl), aliquoted and stored at −80° C. […]
For the human MB-COMT assay, membranes (62 ng/well) were incubated with SAM (20 μM final, CisBio) and dopamine (1.5 μM final; Sigma H8502, Diegem, Belgium) in the presence or absence of varying concentrations (typically 10 concentrations ranging from 10 μM to 0.1 nM) of compound for 40 min at 37° C. in 384-well microtitre plates (10 μl per well final volume). The reaction was terminated by the addition of acylation buffer and the amount of SAH produced determined according to manufacturer's instructions. […]
The human S-COMT assay was performed as above except that 0.15 ng enzyme/well was incubated with SAM (20 μM final) and dopamine (100 μM final) for 15 min at 37° C. and SAH production determined. […]

O=S(=O)(CCCC1CC1)c1ccc(O)c2ncccc12
Activity range (pIC50): +++ (three plus signs (+++) is associated with a pIC50 of above about 7)
